The source of these data is ChEMBL document CHEMBL1177712, “Synthesis and characterization of in vitro and in vivo profiles of hydroxybupropion analogues: aids to smoking cessation” (J Med Chem, 2010).

Protein sequences, listed by entry. Tags and fused reporters are not part of them. Lines headed by an entry give the natural chain unless they say otherwise; changes in a name come on top.
UniProt P17787: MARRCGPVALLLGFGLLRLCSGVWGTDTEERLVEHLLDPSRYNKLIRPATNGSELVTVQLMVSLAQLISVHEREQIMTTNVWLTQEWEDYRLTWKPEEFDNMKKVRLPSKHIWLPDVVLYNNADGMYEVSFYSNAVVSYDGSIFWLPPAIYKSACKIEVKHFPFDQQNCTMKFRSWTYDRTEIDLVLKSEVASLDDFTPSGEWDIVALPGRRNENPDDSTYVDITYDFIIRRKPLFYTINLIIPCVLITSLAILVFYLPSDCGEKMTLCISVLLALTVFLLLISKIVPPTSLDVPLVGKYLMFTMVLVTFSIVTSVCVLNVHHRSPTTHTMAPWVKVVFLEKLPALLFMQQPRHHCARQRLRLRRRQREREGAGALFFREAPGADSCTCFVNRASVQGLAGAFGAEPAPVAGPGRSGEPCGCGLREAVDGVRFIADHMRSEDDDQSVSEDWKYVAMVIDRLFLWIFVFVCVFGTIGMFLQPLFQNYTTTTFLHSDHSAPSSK
UniProt P43681: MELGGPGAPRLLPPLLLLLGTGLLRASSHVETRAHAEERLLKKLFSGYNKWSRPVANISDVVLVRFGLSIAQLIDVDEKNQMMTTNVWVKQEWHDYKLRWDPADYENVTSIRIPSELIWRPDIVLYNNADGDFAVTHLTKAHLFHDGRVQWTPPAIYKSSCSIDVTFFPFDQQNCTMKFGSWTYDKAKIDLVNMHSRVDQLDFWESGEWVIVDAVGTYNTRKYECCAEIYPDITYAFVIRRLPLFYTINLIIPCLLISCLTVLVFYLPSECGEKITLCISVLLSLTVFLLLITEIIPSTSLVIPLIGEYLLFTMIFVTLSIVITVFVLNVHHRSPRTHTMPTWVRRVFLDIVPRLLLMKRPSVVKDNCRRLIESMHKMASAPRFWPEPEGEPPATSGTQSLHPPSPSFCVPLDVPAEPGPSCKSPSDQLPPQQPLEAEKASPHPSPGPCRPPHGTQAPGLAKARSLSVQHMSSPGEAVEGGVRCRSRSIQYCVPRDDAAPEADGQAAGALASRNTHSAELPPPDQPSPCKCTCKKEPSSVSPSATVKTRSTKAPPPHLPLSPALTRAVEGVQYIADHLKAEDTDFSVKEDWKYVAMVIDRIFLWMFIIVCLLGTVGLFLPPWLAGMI
UniProt P30926: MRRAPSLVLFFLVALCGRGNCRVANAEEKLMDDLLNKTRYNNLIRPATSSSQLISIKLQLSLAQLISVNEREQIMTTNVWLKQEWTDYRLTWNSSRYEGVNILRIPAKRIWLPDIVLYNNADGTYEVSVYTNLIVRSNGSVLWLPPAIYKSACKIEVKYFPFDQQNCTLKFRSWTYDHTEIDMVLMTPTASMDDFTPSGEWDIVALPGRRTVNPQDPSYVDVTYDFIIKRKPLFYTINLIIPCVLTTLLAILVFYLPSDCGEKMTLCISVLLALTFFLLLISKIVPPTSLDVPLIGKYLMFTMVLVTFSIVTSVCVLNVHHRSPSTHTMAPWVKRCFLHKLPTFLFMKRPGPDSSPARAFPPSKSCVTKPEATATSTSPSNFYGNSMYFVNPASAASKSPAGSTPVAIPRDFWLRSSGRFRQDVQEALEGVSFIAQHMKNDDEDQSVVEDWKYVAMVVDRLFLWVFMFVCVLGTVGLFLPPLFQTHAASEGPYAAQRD

Active and inactive are the calls of the source. No cut-off for these calls is given here.

The target of test [1] is Neuronal acetylcholine receptor; alpha4/beta2 (Homo sapiens, UniProt P17787+P43681). In words: Agonist activity at alpha4beta2 nicotinic receptor in human SH-EP1 cells assessed as induction of radiolabeled Rb+ influx at 0.005 to 100 uM by liquid scintillation counting. Format: functional, cell-based.
The target in test [2] is Neuronal acetylcholine receptor; alpha4/beta4 (Homo sapiens, UniProt P30926+P43681). As to the kind of experiment: Agonist activity at alpha4beta4 nicotinic receptor in human SH-EP1 cells assessed as induction of radiolabeled Rb+ influx at 0.005 to 100 uM by liquid scintillation counting. Format: functional, cell-based.
Another test has as its system SH-EP1. As to the kind of experiment: Selectivity ratio of IC50 for alpha4beta2 nicotinic receptor in human SH-EP1 cells to IC50 for IC50 for human NET. Format: cell-based.

Regarding `C[C@@H]1NC(C)(C)CO[C@@]1(O)c1ccc(-c2ccccc2)cc1`, the result in test [1] and in test [2] was inactive.

With `C[C@@H]1NC(C)(C)CO[C@@]1(O)c1ccccc1`, the outcome in test [1] and in test [2] was inactive. Further, the Ratio IC50 in the test with SH-EP1 worked out at 12.
